Assay results reported in patent US20260382588A1, “COMPOUNDS CONTAINING A HYDROXYPHENYL MOIETY AND THEIR USE” (published 2026).
pKd: −log10 of the molar value.

The chains behind the UniProt entries cited, without tags or fusion partners. Residues count along the entry.
UniProt O75460, 465-977 limits assumed: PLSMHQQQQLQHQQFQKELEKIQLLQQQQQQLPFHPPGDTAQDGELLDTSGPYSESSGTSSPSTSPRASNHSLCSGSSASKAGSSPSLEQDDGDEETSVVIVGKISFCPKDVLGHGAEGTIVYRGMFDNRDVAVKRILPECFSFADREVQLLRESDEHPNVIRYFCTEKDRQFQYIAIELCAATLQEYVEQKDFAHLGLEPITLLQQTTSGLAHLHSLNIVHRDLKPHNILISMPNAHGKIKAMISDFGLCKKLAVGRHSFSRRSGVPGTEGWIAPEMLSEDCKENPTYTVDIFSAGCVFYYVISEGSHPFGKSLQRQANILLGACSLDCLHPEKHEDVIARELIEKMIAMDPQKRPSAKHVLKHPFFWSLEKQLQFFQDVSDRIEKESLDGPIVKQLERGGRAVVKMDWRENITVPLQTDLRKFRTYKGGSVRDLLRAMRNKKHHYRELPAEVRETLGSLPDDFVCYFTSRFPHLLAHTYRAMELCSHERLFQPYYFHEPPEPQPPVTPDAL

Key:
IRE1 = IRE1 (Homo sapiens, UniProt O75460); assay: MicroScale Thermophoresis (MST) direct binding to recombinant IRE1; details: recombinant IRE1, MST, one-site saturation binding; data not shown
Source text: Materials—IRE1 wild-type recombinant protein encoding the cytoplasmic domain (amino acids 465-977) with N-terminal polyhistidine-tag and GST tag was from Sinobiological (Sino Biological Europe GmbH, Eschborn, Germany, #11905-H20B). The fluorescent probe used for the in vitro IRE1 RNase assay was from Eurogentec. Tunicamycin was purchased from Calbiochem (Merck KGaA, Darmstadt, Germany). All the inhibitors were synthesized by and purchased from Enamine (Riga, Latvia).
MicroScale Thermophoresis13 The direct binding of compound 33 (Z4) and compound 28 (Z4P) to IRE1 protein was measured using MicroScale Thermophoresis (MST). IRE recombinant protein was labelled using RED-Tris-NTA fluorescent dye (RED-Tris-NTA 2nd Generation, NanoTemper, Munich, Germany; #MO-L018). For the labelling step, 100 μL of 20 nM protein solution is mixed with 100 μL of 10 nM RED-Tris-NTA dye in PBST buffer (PBS with 0.05% Tween-20) and incubated for 30 min at RT. The protein—dye mixture was centrifuged for 10 min at 4C and 15 000×g. For measurement of direct binding, the compounds were analyzed in a 16-point dilution series mixed in a 1:1 ratio with the labelled protein in PBST buffer. The assay was performed in standard Monolith NT.115
Capillaries (NanoTemper; #MO-K022), and all measurements were performed at 60% MST power and 60% excitation power using the Monolith NT. 115 Pico machine (NanoTemper). The dissociation constant (Kd) was calculated by taking the average of triplicate normalized fluorescence data using NANOTEMPER analysis software (MO.Affinity Analysis v2.3). The normalized values were converted to fraction-bound data, and the resulting binding curves are plotted using GRAPHPAD PRISM software (GraphPad Software).
To monitor the interaction between IRE1 and the compounds, micro-scale thermophoresis (MST) was used with recombinant IRE1 and increasing concentrations of compound 33 (Z4) and compound 28 (Z4P) (racemic mixtures) and the pure compound 28 (Z4P) enantiomers. […] To this end, the racemic compound was synthesized and the enantiomers separated by chiral chromatography. […] Additionally, compounds 28 (Z4P), 33 (Z4), 34 (Z4A), 35 (Z4B), 36 (Z4C), 37 (Z4D) and 38 (Z4E) were tested for inhibitory activity using a fluorescence resonance energy transfer (FRET)—quenched IRE1 RNA substrate probe and yielded IC50s in the low micromolar range (FIG. 1).

[1] = test system: IRE1 phosphorylation in U87 cells; assay: IRE1 phosphorylation in U87 cells (western blot); details: treatment over 24 hours (FIG. 2A)
Description: FIG. 2: Compound 33 (Z4) and compound 28 (Z4P) inhibit IRE1 activity in cellular models. (A) Protein levels of IRE1 and phospho-IRE1 in U87 cells treated with compound 33 (Z4) and compound 28 (Z4P) over 24 hours. Fold change of protein expression between IRE1 and phospho-IRE1 is represented in bar chart form normalized to untreated U87 cells. (B) Quantification of XBP1s mRNA levels upon treatment with 1 μg/mL Tunicamycin over 24 hrs in the presence or absence of pre-treatments with 25 μM compound 33 (Z4) or compound 28 (Z4P) normalized to untreated U87 cells. (C) Quantification of SPARC mRNA levels in the presence of 5 μg/mL Actinomycin D and presence or absence of 10 μg/mL Tunicamycin and 9 μg/mL compound 33 (Z4) or compound 28 (Z4P) over 4 hours in U87 cells. […] The non-linear regression was calculated using the GraphPad Prism software. […]
Cell culture and treatments—U87MG (U87; ATCC) cells were authenticated as recommended by AACR (http://aacrjoumals.org/content/cell-line-authentication-information) and regularly tested for the absence of mycoplasma using MycoAlert® (Lonza, Basel, Switzerland) or MycoFluor (Invitrogen, Carlsbad, CA, USA). […] After 6 days of incubation, WST1 reagent (Roche) was added to each well and post 2-hour incubation the plate was read using a Tecan 200 colorimeter. […]

Structure (SMILES)	pKd (IRE1)	reduction of IRE1 phosphorylation [1]
Cc1ccc(C(N)=O)cc1NC(=O)NC(C)CCc1ccc(O)cc1 (racemic)	4.70	about 25%
Cc1ccc(C)c(NC(=O)NC(C)CCc2ccc(O)cc2)c1 (racemic)	3.92	about 25%
